Here are results for one compound from PubChem BioAssay AID2105 (Johns Hopkins Ion Channel Center, 2009).

Molecules are shown by their SMILES. This is a selection; strong and weak results do not stand in their true shares. The source made the active and inactive calls.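 Rule for the calls: active = dye signal at least 3 control SD above or below untreated wells in both duplicates, raw fluorescence within 3, either direction; inactive = the rest.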

This experiment in a line: parental HEK293 cell activity, no Kir2.1 – FluxOR thallium flux, duplicate, single concentration, counter-screen for Kir2.1 inhibitor project, confirmation (AID 2105). As to conditions: parental HEK293 cells, FluxOR thallium flux fluorescence; at 10 µM.
For the compound `CCC1=CC2Cc3nc4ccc(Cl)cc4c(N)c3C(C1)C2` (stereo unspecified), the activity change vs negative control is inactive: 0%.
